As a reminder, the inhibition is the change of the read-out against control, counted positive when it falls.

The chains behind the UniProt entries cited, without tags or fusion partners.
UniProt Q9NZ08, whole entry: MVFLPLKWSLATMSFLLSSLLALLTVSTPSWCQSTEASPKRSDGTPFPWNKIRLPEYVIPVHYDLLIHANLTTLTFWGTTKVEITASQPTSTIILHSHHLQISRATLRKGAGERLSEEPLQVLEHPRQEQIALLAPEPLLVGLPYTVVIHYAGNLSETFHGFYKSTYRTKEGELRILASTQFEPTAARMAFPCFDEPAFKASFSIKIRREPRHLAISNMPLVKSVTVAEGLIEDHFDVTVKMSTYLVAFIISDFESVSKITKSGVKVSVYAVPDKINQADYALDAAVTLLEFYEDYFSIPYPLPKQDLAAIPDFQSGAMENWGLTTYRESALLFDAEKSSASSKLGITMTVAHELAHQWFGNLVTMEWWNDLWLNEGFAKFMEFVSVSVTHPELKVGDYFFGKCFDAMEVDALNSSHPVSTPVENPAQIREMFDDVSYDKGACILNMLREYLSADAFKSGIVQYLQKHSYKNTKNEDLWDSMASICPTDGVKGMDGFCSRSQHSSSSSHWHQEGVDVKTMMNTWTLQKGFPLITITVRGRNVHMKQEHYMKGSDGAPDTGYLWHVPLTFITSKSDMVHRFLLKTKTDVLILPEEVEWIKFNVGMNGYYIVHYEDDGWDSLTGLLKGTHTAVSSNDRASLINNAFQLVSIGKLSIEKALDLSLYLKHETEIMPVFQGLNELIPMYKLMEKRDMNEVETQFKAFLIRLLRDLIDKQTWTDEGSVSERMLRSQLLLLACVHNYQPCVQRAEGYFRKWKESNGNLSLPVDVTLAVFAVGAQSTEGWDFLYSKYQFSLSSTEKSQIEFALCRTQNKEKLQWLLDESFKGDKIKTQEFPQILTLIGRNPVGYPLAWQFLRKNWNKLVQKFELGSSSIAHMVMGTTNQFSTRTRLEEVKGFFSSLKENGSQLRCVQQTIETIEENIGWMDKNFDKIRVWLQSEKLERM

Experimental findings from PubChem BioAssay AID652197 (Broad Institute, 2013) are described below.

The entries are a selection whose mix differs from that of the whole data set. Some of these compounds have results that are not shown, active ones among them. Activity calls are given as the source filed them.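 How the source made its calls: active means mean replicate inhibition of at least 30%, or all replicates individually reaching that 30% level; inactive means mean below 30% and not every replicate reaching it.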

In this test the target is Endoplasmic reticulum aminopeptidase 1 (Homo sapiens) (UniProt Q9NZ08). The test is described as follows: human ERAP1 aminopeptidase inhibitors, primary screen, biochemical, single point, plate reader (AID 652197).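 Further: 0% = neutral control wells and 100% = L-leucinethiol positive control wells.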 To be noted: recombinant ERAP1, Leu-AMC fluorescence, 60 min; at 10.7 µM; stronger effect = higher value.
`COc1ccc(Br)c(C(=O)NCC2(N3CCCCC3)CCCCC2)c1`: the inhibition is inactive: -2.15%.

Turning to `C=C(C)C#CC(O)(C(=O)OC1CCN(C)CC1)c1ccccc1` (configuration not stated), the inhibition is inactive: -1.97%. The value for `CC(C)Oc1ccc(C(=O)NCC2(N(C)C)CCCCC2)cc1` was inactive: -0.348%; that for `O=C(OCCN1CCCC1)C(O)(c1ccccc1)c1ccccc1` was inactive: -1.68%; that for `COc1cccc(C(=O)NCC2(N3CCCCC3)CCCCC2)c1` was inactive: 0.956%. Turning to `COc1ccc(Cl)cc1C(=O)NCC1(N(C)C)CCCCC1`, the inhibition is inactive: -1.73%.

In the case of `O=C(NCC1(N2CCCCC2)CCCCC1)c1cccc(Cl)c1`, the inhibition was inactive: -3.92%. For the molecule `CN(C)C1(CNC(=O)c2ccc(Br)cc2)CCCCC1`, the inhibition is inactive: 0.598%.

As to `COc1cc(C(=O)NCC2(N(C)C)CCCCC2)c([N+](=O)[O-])cc1OC`, the inhibition is inactive: -4.77%. The value for `C=CCN1CCN(CCOC(=O)C(O)(c2ccccc2)c2ccccc2)CC1` was inactive: -2.37%; that for `O=C(NCC1(N2CCCCC2)CCCCC1)c1cc(F)c(F)cc1Cl` was inactive: -2.2%; that for `Cc1cc(C(=O)NCC2(N3CCCCC3)CCCCC2)ccc1[N+](=O)[O-]` was inactive: 0.861%. The value for `O=C(NCC1(N2CCCCC2)CCCCC1)c1cccc(Br)c1` was inactive: -4.2%; that for `COc1ccc(C(=O)NCC2(N(C)C)CCCCC2)cc1` was inactive: -0.649%; that for `Cc1ccccc1C(=O)NCC1(N2CCCCC2)CCCCC1` was inactive: -2.55%. For the molecule `CN(C)c1ccc(C(=O)NCC2(N(C)C)CCCCC2)cc1`, the inhibition is inactive: -0.648%. The same measure for `CN(C)C1CCCC1OC(=O)C(O)(c1ccccc1)c1ccccc1` (configuration not stated): inactive: -1.94%; for `CCN(CC)CC(C)C(C)OC(=O)C(O)(c1ccccc1)c1ccccc1` (configuration not stated): inactive: -3.84%. The same measure for `COc1cc(SC)ccc1C(=O)NCC1(N(C)C)CCCCC1`: inactive: -1.46%; for `Cc1ccc(C(=O)NCC2(N3CCCCC3)CCCCC2)cc1`: inactive: -5.5%. The value for `O=C(NCC1(N2CCCCC2)CCCCC1)c1cc([N+](=O)[O-])ccc1Cl` was inactive: 5.34%. Turning to `CN1[C@@H]2CC[C@H]1CC(OC(=O)C(O)(c1ccccc1)c1ccccc1)C2` (some centres not stated), the inhibition is inactive: -2.25%.
